Amino acid sequences for entries named in this document (tags omitted).
UniProt P23977, whole entry: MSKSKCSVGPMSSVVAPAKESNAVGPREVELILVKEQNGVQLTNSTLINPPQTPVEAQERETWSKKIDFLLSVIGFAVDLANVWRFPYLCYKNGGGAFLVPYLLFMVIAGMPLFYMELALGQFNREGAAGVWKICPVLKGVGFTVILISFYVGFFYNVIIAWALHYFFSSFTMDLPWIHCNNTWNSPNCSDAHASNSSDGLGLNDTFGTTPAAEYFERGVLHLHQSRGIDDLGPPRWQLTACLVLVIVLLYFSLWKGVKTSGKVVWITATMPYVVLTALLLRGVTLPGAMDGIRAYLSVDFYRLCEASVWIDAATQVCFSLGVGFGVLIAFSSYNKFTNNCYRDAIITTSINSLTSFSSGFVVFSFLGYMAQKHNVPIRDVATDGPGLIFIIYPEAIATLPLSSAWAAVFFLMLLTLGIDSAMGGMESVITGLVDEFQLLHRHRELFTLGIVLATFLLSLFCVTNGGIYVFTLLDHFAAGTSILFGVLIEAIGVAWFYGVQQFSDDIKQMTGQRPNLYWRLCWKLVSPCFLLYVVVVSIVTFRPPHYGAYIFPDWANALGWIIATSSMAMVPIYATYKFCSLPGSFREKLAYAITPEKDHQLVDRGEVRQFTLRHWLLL

In patent publication US20070282007A1, “TREATMENT OF PAIN DISORDERS WITH trans 4-(3,4-DICHLOROPHENYL)-1,2,3,4-TETRAHYDRO-1-NAPHTHALENAMINE AND ITS FORMAMIDE” (SEPRACOR INC., priority 2006, published 2007):

Biological target: Dopamine (DA) uptake (Rattus norvegicus, UniProt P23977)
Experiment: biochemical

IC50: 17 µM
Structure (SMILES): CN(C)CCCC1(c2ccc(F)cc2)OCc2cc(C#N)ccc21 (stereo not shown) [Citalopram]
